Among the targets are HLA-B*1801 (Homo sapiens, UniProt P01889, A329T/A93T/A95T/C349S/D201E/D54G/D98Y/E176V/E187T/E204Q/E69T/K202T/Q94N/R155S/R180L/S121R/V306I/Y140S/Y195H/Y33H/Y91S); HLA-B*4402 (Homo sapiens, UniProt P01889, A223V/A65T/A93T/A95T/D201E/D98Y/E176V/E187L/E204Q/E69K/G107R/H137Y/K202T/L105A/L119I/N104T/N87E/Q56L/Q94N/R106L/R155S/R180D/S101N/S121R/S35A/S48T/T118I/V36M/W191S/Y140D/Y91S); HLA-B*4501 (Homo sapiens, UniProt P01889, A329T/A65T/A93T/A95T/C349S/D138N/D201E/D98Y/E176V/E187L/E204Q/E69K/H137Y/K202T/L119W/N87E/Q56L/Q94N/R155S/R180D/S121R/S35A/S48T/V127L/V306I/V36M/W191S/Y140L/Y33H/Y91S); HLA-B*4002 (Homo sapiens, UniProt P01889, A65T/A93T/A95T/D138N/D201E/D98Y/E176V/E204Q/E69K/K202T/N87E/Q56L/Q94N/R180L/S48T/Y33H/Y91S).

Holding throughout (test): biochemical
Type in all cases: binding

For orientation: IC50 means the concentration at which inhibition is half-maximal. A low value points to inhibition by little substance.

In the case of `CSCC[C@H](NC(=O)[C@H](CCC(=O)O)NC(=O)[C@H](C)N)C(=O)N[C@@H](CC(C)C)C(=O)N[C@@H](CCC(=O)O)C(=O)N[C@@H](CO)C(=O)N[C@H](C(=O)N[C@@H](CC(C)C)C(=O)O)C(C)C`, the IC50 against HLA-B*1801 was 0.968 µM; at HLA-B*4402 it was 0.327 µM; on HLA-B*4501, 0.302 µM.
Turning to `CSCC[C@H](NC(=O)[C@H](CCCNC(=N)N)NC(=O)[C@@H]1CCCN1C(=O)[C@H](C)NC(=O)[C@H](CCC(=O)O)NC(=O)[C@@H](N)CC(=O)O)C(=O)N1CCC[C@H]1C(=O)N[C@@H](CCC(=O)O)C(=O)N[C@@H](C)C(=O)O`, the IC50 turned out to be 4.58 µM against HLA-B*4002 and 6.45 µM against HLA-B*4402.
In the case of `CSCC[C@H](NC(=O)[C@H](CCCNC(=N)N)NC(=O)[C@@H]1CCCN1C(=O)CNC(=O)[C@H](CCC(=O)O)NC(=O)[C@H](CCC(=O)O)NC(=O)[C@@H](N)CCC(=O)O)C(=O)N[C@@H](Cc1ccccc1)C(=O)O`, the concentration for half-maximal inhibition (IC50) at HLA-B*4402 was 2.41 µM; at HLA-B*4501, 0.943 µM.
The like results for `CC[C@H](C)[C@H](NC(=O)[C@H](CCCCN)NC(=O)[C@H](CCC(=O)O)NC(=O)[C@@H](N)CCC(=O)O)C(=O)N[C@@H](Cc1c[nH]c2ccccc12)C(=O)N[C@@H](CCC(=O)O)C(=O)N[C@@H](CCC(=O)O)C(=O)N[C@@H](CC(C)C)C(=O)N[C@@H](CO)C(=O)N[C@H](C(=O)N[C@@H](CC(C)C)C(=O)O)C(C)C` were, in that order, 1.42 µM and 0.218 µM.
As to `CC(C)C[C@H](NC(=O)[C@H](CC(N)=O)NC(=O)[C@H](CCC(=O)O)NC(=O)CN)C(=O)N[C@@H](CC(N)=O)C(=O)N[C@@H](CC(C)C)C(=O)N[C@@H](CO)C(=O)N[C@@H](CS)C(=O)N[C@@H](Cc1c[nH]cn1)C(=O)N[C@@H](C)C(=O)O`, the results for the IC50 against HLA-B*1801, against HLA-B*4402 and at HLA-B*4501 were 14.4 µM, 8.61 µM and 0.271 µM, respectively.
With `CC[C@H](C)[C@H](NC(=O)[C@H](CCC(=O)O)NC(=O)[C@@H](N)CCCCN)C(=O)N[C@@H](CC(C)C)C(=O)N[C@@H](CC(=O)O)C(=O)N[C@@H](CCC(=O)O)C(=O)N[C@@H](C)C(=O)N[C@@H](Cc1ccc(O)cc1)C(=O)N[C@H](C(=O)N[C@@H](CCSC)C(=O)O)C(C)C`, the half-maximal inhibitory concentration (IC50) against HLA-B*4402 was determined as 0.035 µM; against HLA-B*4501, 0.234 µM.
`CC(C)C[C@H](NC(=O)[C@H](CCC(=O)O)NC(=O)[C@@H](NC(=O)[C@H](CCC(=O)O)NC(=O)[C@@H](N)CCCCN)[C@@H](C)O)C(=O)N[C@@H](CCCNC(=N)N)C(=O)N[C@@H](CCCCN)C(=O)N[C@H](C(=O)N[C@@H](CCCCN)C(=O)N[C@H](C(=O)O)C(C)C)C(C)C`: the half-maximal inhibitory concentration (IC50) on HLA-B*1801 worked out at 11.9 µM; at HLA-B*4402 it was 2.94 µM; on HLA-B*4501, 1.6 µM.
Consider `CC(C)C[C@H](NC(=O)[C@@H](NC(=O)[C@H](CCCCN)NC(=O)[C@@H](NC(=O)[C@H](CCCCN)NC(=O)[C@H](CCCNC(=N)N)NC(=O)[C@H](CC(C)C)NC(=O)[C@H](CCC(=O)O)NC(=O)[C@@H](NC(=O)[C@H](CCC(=O)O)NC(=O)[C@@H](N)CCCCN)[C@@H](C)O)C(C)C)C(C)C)C(=O)O`, for which the IC50 at HLA-B*1801 was determined as 9.53 µM; against HLA-B*4002 it was 1.87 µM; on HLA-B*4402, 7.14 µM; against HLA-B*4501, 12.2 µM.
Turning to `CC(C)[C@H](NC(=O)[C@H](CCC(=O)O)NC(=O)[C@@H](N)CCC(N)=O)C(=O)N[C@H](C(=O)N[C@@H](C)C(=O)N[C@@H](CCC(=O)O)C(=O)N[C@@H](CC(=O)O)C(=O)NCC(=O)N[C@H](C(=O)O)[C@@H](C)O)[C@@H](C)O`, the IC50 was 5.21 µM on HLA-B*1801, 7.89 µM at HLA-B*4402 and 1.84 µM on HLA-B*4501.
In the case of `CC[C@H](C)[C@H](NC(=O)[C@H](CCCCN)NC(=O)[C@H](CCC(=O)O)NC(=O)[C@H](CCC(=O)O)NC(=O)[C@@H]1CCCN1C(=O)[C@H](C)NC(=O)[C@H](CS)NC(=O)[C@H](CC(=O)O)NC(=O)CNC(=O)[C@H](CCC(=O)O)NC(=O)[C@@H](N)CCCNC(=N)N)C(=O)O`, the IC50 amounted to 0.973 µM against HLA-B*1801, 4.04 µM at HLA-B*4402 and 0.146 µM on HLA-B*4501.
The corresponding values for `CC[C@H](C)[C@H](NC(=O)[C@H](CC(N)=O)NC(=O)[C@H](C)NC(=O)[C@H](CO)NC(=O)[C@@H](NC(=O)[C@@H](NC(=O)[C@H](C)NC(=O)[C@H](CCCNC(=N)N)NC(=O)[C@@H](NC(=O)[C@H](CCC(=O)O)NC(=O)[C@@H](N)CCCNC(=N)N)C(C)C)C(C)C)[C@@H](C)O)C(=O)O` are 4.49 µM, 1.68 µM and 0.421 µM.
With `CC(C)C[C@H](NC(=O)[C@H](CCC(=O)O)NC(=O)[C@@H](N)[C@@H](C)O)C(=O)N[C@@H](CCCNC(=N)N)C(=O)N[C@@H](CCCCN)C(=O)N[C@H](C(=O)N[C@@H](CCCCN)C(=O)N[C@H](C(=O)N[C@@H](CC(C)C)C(=O)NCC(=O)O)C(C)C)C(C)C`, the figures for the IC50 against HLA-B*1801, at HLA-B*4002 and at HLA-B*4402 were 0.721 µM, 0.601 µM and 3.65 µM, respectively.
On to `CC(C)C[C@H](NC(=O)[C@H](CC(C)C)NC(=O)[C@H](CC(C)C)NC(=O)[C@H](Cc1ccccc1)NC(=O)[C@H](Cc1c[nH]cn1)NC(=O)[C@@H](NC(=O)[C@H](CC(C)C)NC(=O)[C@H](CCC(=O)O)NC(=O)[C@@H](N)C(C)C)C(C)C)C(=O)N[C@@H](CCCCN)C(=O)N[C@@H](Cc1ccc(O)cc1)C(=O)O`, for which the half-maximal inhibitory concentration (IC50) on HLA-B*4002 was found to be 0.294 µM; at HLA-B*4402, 1.55 µM.
Consider `CSCC[C@H](NC(=O)[C@H](C)NC(=O)CNC(=O)[C@H](CO)NC(=O)[C@@H]1CCCN1C(=O)[C@@H](NC(=O)[C@H](CC(C)C)NC(=O)[C@@H]1CCCN1C(=O)[C@H](CCC(=O)O)NC(=O)[C@@H](N)C(C)C)[C@@H](C)O)C(=O)O`, for which the half-inhibitory concentration (IC50) against HLA-B*1801 is 4.65 µM; against HLA-B*4002, 0.584 µM; at HLA-B*4402 it was 4.37 µM.
In the case of `CC[C@H](C)[C@H](NC(=O)[C@H](Cc1ccc(O)cc1)NC(=O)[C@H](CC(C)C)NC(=O)[C@H](Cc1c[nH]cn1)NC(=O)[C@H](CO)NC(=O)[C@@H](NC(=O)[C@@H]1CCCN1C(=O)[C@@H](NC(=O)[C@@H](NC(=O)[C@H](CCC(=O)O)NC(=O)[C@@H](N)C(C)C)C(C)C)C(C)C)[C@@H](C)CC)C(=O)O`, the 50% inhibitory concentration (IC50) on HLA-B*4002 came out at 0.146 µM; against HLA-B*4402 it was 0.335 µM.
Turning to `CC(C)C[C@H](NC(=O)[C@H](Cc1ccc(O)cc1)NC(=O)[C@H](CCC(=O)O)NC(=O)[C@@H](N)C(C)C)C(=O)N[C@@H](CC(=O)O)C(=O)N[C@@H](CC(=O)O)C(=O)N[C@@H](CCCNC(=N)N)C(=O)N[C@@H](CC(N)=O)C(=O)N[C@H](C(=O)O)[C@@H](C)O`, the results for the concentration for half-maximal inhibition (IC50) against HLA-B*1801, at HLA-B*4402 and against HLA-B*4501 were 1.44 µM, 10.1 µM and 13.5 µM, respectively.
As for `CC[C@H](C)[C@H](NC(=O)CNC(=O)[C@H](CS)NC(=O)[C@H](CCC(=O)O)NC(=O)[C@@H](N)Cc1ccc(O)cc1)C(=O)N[C@@H](CCC(N)=O)C(=O)N[C@@H](CC(N)=O)C(=O)N[C@@H](CCC(=O)O)C(=O)N[C@@H](CC(C)C)C(=O)O`, the results for the IC50 against HLA-B*4402 and against HLA-B*4501 were 0.452 µM and 0.855 µM, respectively.
Regarding `CC(C)C[C@H](NC(=O)[C@H](C)NC(=O)[C@H](CCC(=O)O)NC(=O)CNC(=O)[C@H](CCCNC(=N)N)NC(=O)[C@H](C)NC(=O)[C@H](CCC(=O)O)NC(=O)[C@H](CC(C)C)NC(=O)CNC(=O)[C@H](CCC(=O)O)NC(=O)[C@@H](N)CCC(=O)O)C(=O)O` [EEGLEARGEAL], the half-maximal inhibitory concentration (IC50) against HLA-B*4002 stood at 0.578 µM; against HLA-B*4402, 2.63 µM.

The values are drawn from patent US20060079453A1, “Hla binding peptides and their uses” (priority 2002, published 2006).
